Test results published in PMC5360572 (EBioMedicine, 2017).

Chains of the proteins cited; added tags and fusions are not shown. Residues count along the entry.
UniProt Q9EP73, 19-239: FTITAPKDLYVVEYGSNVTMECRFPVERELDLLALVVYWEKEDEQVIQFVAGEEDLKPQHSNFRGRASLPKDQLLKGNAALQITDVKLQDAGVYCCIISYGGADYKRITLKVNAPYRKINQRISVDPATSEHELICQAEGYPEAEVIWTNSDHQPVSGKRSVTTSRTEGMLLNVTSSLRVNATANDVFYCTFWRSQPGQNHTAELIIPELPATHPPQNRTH

How the values were obtained:
Experiment in all cases: SPR; BIAcore 3000, 25 °C; PD-L1-Ig or PD-L2-Ig immobilized on CM5 chip by amine coupling; soluble monomeric PD-1 or mutants (0.01–100 μM) injected at 20 μl/min; equilibrium Kd, 1:1 Langmuir model
Conditions in all cases: both partners purified
[1] = target: T1, mouse PD-L2 Ig fusion protein (mouse, UniProt Q9WUL5 20-221)
T1 construct: mouse PD-L2 part of a bought Ig fusion protein; also called mPD-L2; murine PD-L2-Ig; source: bought: R&D Systems
T1 sequence (looked up): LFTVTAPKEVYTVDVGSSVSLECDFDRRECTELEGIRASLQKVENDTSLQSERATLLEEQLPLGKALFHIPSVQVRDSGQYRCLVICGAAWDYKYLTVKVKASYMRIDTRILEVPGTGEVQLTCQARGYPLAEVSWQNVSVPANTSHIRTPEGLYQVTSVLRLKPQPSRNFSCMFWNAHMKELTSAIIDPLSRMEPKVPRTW

[2] = target: T2, mouse PD-L1 Ig fusion protein (mouse, UniProt Q9EP73, in part)
T2 construct: mouse PD-L1 part of a bought Ig fusion protein; also called mPD-L1; murine PD-L1-Ig; source: bought: R&D Systems

[3] = target: T3, human PD-L2 Ig fusion protein (human, UniProt Q9BQ51 20-220)
T3 construct: characterized by SEC prior to use; also called huPD-L2; B7-DC; source: bought: R&D Systems
T3 sequence (looked up): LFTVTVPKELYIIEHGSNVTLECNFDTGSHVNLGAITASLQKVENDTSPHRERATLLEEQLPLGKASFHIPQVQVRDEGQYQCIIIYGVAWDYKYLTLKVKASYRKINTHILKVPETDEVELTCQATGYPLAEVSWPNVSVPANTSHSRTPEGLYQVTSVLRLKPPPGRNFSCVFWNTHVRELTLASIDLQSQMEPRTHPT

Kd [1]: 270 nM
Kd [2]: 3.81 µM
Kd [3]: 190 nM
B1: human PD-1 extracellular IgV domain, wild type (soluble, monomeric) (domain or fragment)
chain: WNPPTFSPALLVVTEGDNATFTCSFSNTSESFVLNWYRMSPSNQTDKLAAFPEDRSQPGQDCRFRVTQLPNGRDFHMSVVRARRNDSGTYLCGAISLAPKAQIKESLRAELRVTERRAEVPTAHPSPSP
notes: numbering relative to the initiator methionine; cloned into pET3a between NdeI and BamH1; no tag is named; also called huPD-1; soluble monovalent PD-1
